From patent publication US10435642B2, “Ionic liquids containing symmetric quaternary phosphonium cations and phosphorus-containing anions, and their use as lubricant additives” (UT-Battelle, LLC, priority 2014, dated 2019) come the findings set out here.

Some results are limits rather than exact numbers.

“tetraoctylphosphonium bis(2-ethylhexyl)phosphate [[P8888][DEHP]]”: the “Oil-solubility in Chevron SAE 10 W base oil” value (Chevron SAE 10 W base oil) is recorded as greater than 50 wt %. Besides, for the setting “Shell GTL 4 cSt base oil”, the “Oil-solubility in Shell GTL 4 cSt base oil” value is given as greater than 50 wt %.

Regarding “tributyltetradecylphosphonium bis(2-ethylhexyl)phosphate [[P44414][DEHP]]”, the “Oil-solubility in ExxonMobil PAO 4 cSt base oil” value (ExxonMobil PAO 4 cSt base oil) is less than 1 wt %. For the setting “Table 2”, the Oil solubility result is listed as “less than 1%”.
